Key:
[1] = biological target: glucocorticoid receptor (Homo sapiens (Human), UniProt P04150); assay: PolarScreen Glucocorticoid Receptor Competitor Assay (GR binding); details: fluormone GS red, GR full length protein; read-out: GR Bind IC50
[2] = tested on: MDCKII cells; assay: Apparent permeability in MDCKII cells; details: 1 μM, t=3 hr, average of A to B and B to A Papp

By UniProt entry, the sequences of proteins in these tests, tags left out. Where a name states a change or a piece, a line headed by the entry shows the natural chain unless it says otherwise.
UniProt P04150: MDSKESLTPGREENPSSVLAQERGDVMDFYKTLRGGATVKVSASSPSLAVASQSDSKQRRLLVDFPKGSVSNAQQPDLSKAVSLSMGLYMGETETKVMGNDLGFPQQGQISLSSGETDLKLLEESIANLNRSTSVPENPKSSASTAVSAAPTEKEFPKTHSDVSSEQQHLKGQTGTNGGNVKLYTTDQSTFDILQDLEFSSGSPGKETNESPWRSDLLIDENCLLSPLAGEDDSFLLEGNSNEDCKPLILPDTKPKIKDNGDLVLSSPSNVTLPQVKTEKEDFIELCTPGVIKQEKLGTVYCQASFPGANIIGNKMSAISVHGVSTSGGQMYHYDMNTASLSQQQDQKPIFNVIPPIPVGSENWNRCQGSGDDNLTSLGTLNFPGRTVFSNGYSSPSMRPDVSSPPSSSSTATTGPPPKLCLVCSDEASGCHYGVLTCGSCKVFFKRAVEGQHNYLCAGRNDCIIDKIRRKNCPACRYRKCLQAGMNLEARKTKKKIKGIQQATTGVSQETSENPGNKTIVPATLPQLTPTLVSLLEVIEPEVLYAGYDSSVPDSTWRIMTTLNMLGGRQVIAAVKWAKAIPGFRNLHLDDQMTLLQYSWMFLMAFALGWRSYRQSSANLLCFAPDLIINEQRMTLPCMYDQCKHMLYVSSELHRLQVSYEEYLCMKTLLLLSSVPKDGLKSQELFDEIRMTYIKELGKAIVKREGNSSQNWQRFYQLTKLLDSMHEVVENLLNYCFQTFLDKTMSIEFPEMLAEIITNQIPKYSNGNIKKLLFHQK

(6-(3-((3aR,4aS,4bS,11aR,11bS,12S,13aS,13bS)-12-hydroxy-13b-(2-hydroxyacetyl)-11a,13a-dimethyl-2-propyl-4,4a,5,6,11,11a,11b,12,13,13a-decahydro-[1,3]dioxolo[4″,5″:3′,4′]cyclopenta[1′,2′:5,6]naphtho[1,2-f]indazol-8 (3aH,4bH,13bH)-yl)phenoxy)hexyl)phosphonic acid [Compound 27]
IC50 [1]: 2 nM
MDCK Permeability (cm × 10−6/sec) [2]: 1.8 cm × 10−6/sec
